Assay results as given in patent US10674724B2, “Method of activating immune response in plants” (priority 2012, dated 2020).

Assay: solubility in water
Format: physicochemical

solubility in water: low solubility in water
SMILES: O=C(O)c1cc(Cl)ccc1O [5-chloro SA]
